Measurements taken from patent publication US9296708B2, “Chimeric small molecules for the recruitment of antibodies to cancer cells” (YALE UNIVERSITY, priority 2008, dated 2016).

Tested on: PSMA-expressing LNCaP cells
Assay: Antibody recruitment flow cytometry
Conditions: competitor added together with 3 and anti-DNP antibodies

With `NCCCC[C@@H](C(=O)O)N(c1ccc([N+](=O)[O-])cc1[N+](=O)[O-])c1ccc([N+](=O)[O-])cc1[N+](=O)[O-]` the “effect of competitor on 3-mediated antibody recruitment (fluorescence)” value was “decrease in fluorescence”.
